Test results published in patent US20130230562.

B1: caspase-3 (NCBI accession no: NP-004337.2), human, purchased from R&D Systems (protein)
chain: SGISLDNSYKMDYPEMGLCIIINNKNFHKSTGMTSRSGTDVDAANLRETFRNLKYEVRNKNDLTREEIVELMRDVSKEDHSKRSSFVCVLLSHGEEGIIFGTNGPVDLKKITNFFRGDRCRSLTGKPKLFIIQACRGTELDCGIETDSGVDDDMACHKIPVEADFLYAYSTAPGYYSWRNSKDGSWFIQSLCAMLKQYADKLEFMHILTRVNRKVATEFESFSFDATFHAKKQIPCIVSMLTKELYFYH
B2: caspase-7 (NCBI accession no: NP-001218.1), human, purchased from R&D Systems (protein)
chain: AKPDRSSFVPSLFSKKKKNVTMRSIKTTRDRVPTYQYNMNFEKLGKCIIINNKNFDKVTGMGVRNGTDKDAEALFKCFRSLGFDVIVYNDCSCAKMQDLLKKASEEDHTNAACFACILLSHGEENVIYGKDGVTPIKDLTAHFRGDRCKTLLEKPKLFFIQACRGTELDDGIQADSGPINDTDANPRYKIPVEADFLFAYSTVPGYYSWRSPGRGSWFVQALCSILEEHGKDLEIMQILTRVNDRVARHFESQSDDPHFHEKKQIPCVVSMLTKELYFSQ

Target: ApoHsp (cage protein formed by the fusion protein of Hsp, DEVD motif and histidine polymer, labelled with Cy5.5 and BHQ3)

| Protein | fluorescence signal (Cy5.5 dequenching after cleavage, 96-well plate, 37 C, 2 hours) |
| --- | --- |
| B1 | about 7 times greater fluorescence signal compared to an extinction condition |
| B2 | ApoHsp in a reaction with caspase-7 showed about 4 times greater fluorescence signal |
